What was measured:
[1] = target: T1, Pyruvate dehydrogenase E1 component subunit alpha, somatic form, mitochondrial (Sus scrofa) (UniProt P29804); test: Ratio of Km for ThDP substrate activity at porcine PDHc E1-subunit to Ki for inhibition of porcine PDHc E1-subunit assessed as inhibition constant preincubated for 30 mins followed by pyruvate addition using 10 uM ThDP as substrate by microplate reader analysis
T1 sequence (whole entry): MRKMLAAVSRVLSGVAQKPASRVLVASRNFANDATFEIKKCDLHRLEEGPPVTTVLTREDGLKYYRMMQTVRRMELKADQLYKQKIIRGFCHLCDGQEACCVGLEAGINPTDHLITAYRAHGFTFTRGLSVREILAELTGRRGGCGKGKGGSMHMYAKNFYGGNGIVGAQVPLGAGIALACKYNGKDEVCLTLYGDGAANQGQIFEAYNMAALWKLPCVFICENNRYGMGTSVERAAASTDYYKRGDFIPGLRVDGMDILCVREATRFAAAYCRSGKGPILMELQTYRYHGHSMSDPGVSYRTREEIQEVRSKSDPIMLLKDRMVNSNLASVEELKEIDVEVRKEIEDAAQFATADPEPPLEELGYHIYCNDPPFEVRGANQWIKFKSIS

[2] = system: Zymomonas mobilis; test: Ratio of Km for ThDP substrate activity at Zymomonas mobilis pyruvate decarboxylase to Ki for inhibition of Zymomonas mobilis pyruvate decarboxylase assessed as inhibition constant preincubated for 60 mins followed by pyruvate addition using 10 uM ThDP as substrate by microplate reader analysis
[3] = system: Escherichia coli; test: Ratio of Km for ThDP substrate activity at Escherichia coli OGDHc E1 to Ki for inhibition of Escherichia coli OGDHc E1 subunit assessed as inhibition constant preincubated for 60 mins followed by alpha-ketoglutarate addition using 30 uM ThDP as substrate by microplate reader analysis
[4] = system: Aerococcus viridans; test: Ratio of Km for ThDP substrate activity at Aerococcus viridans pyruvate oxidase to Ki for inhibition of Aerococcus viridans pyruvate oxidase assessed as inhibition constant preincubated for 30 mins followed by pyruvate addition using 50 uM ThDP as substrate by microplate reader analysis

Row | SMILES | Ratio [1] | Ratio [2] | Ratio [3] | Ratio [4]
1 | Cc1ncc(Cn2cc(CCCCC(=O)NO)nn2)c(N)n1 | 0.5 | 0.4 | 2.05 | 0.22
2 | Cc1ncc(Cn2cc(CCCC(=O)NO)nn2)c(N)n1 | 1.11 | 0.51 | 1.49 | 0.25
3 | COc1ccc(-c2cn(CCCCc3cn(Cc4cnc(C)nc4N)nn3)nn2)cc1 | 1.67 | – | – | –

Source: ChEMBL document CHEMBL5257137, “Inhibition of Thiamine Diphosphate-Dependent Enzymes by Triazole-Based Thiamine Analogues” (ACS Med Chem Lett, 2023)
